# Antibody variant affinities, Ab-14 light chain, assay 1

All variants were tested on one target, the spike HR2 peptide PDVDLGDISGINAS (SARS-CoV-2).

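Phage display of a naive human antibody library on the peptide gave the parent. In library AAYL50, one, two or three CDR residues were substituted; doubles and triples were drawn at random. Affinity was read by AlphaSeq, a pooled yeast mating assay with surface-displayed partners. The frequency of each diploid, read from paired DNA barcodes, reflects how well the two displayed proteins bind. The ratio of observed to expected reads was calibrated, replicate by replicate, on BCL2-family standards whose Kd was known from biolayer interferometry. Mating was done three times.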

Parent: Ab-14, a human scFv built as VH, a (GGGGS)3 linker, VL. Only the CDRs of the light chain vary.
VH: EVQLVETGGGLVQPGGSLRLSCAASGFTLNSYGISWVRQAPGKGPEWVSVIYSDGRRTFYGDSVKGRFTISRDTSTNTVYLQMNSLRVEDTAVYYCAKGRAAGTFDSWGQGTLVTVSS
VL: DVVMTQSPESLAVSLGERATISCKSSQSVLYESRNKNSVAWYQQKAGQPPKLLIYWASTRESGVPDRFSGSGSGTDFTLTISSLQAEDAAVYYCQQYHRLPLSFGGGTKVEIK

Each variant is given by its three light chain CDRs, as the data file delimits them; those of the parent are KSSQSVLYESRNKNSVA, WASTRES, QQYHRLPLS. Numbers give log10(Kd / nM), so 0 is 1 nM and 3 is 1 µM. Smaller is tighter. A mean of the replicates is given; it leaves out those without a signal. "nd" means that the variant was in the library but no mating with the target was seen in that replicate; the authors take this as a sign of poor binding, and no number exists. The list is sorted by this average, lowest first, undetected variants last. Three control strains display no target. For library AAYL50, 18% of the pairings with them gave a signal, with a median of 4.19 and one signal in twenty below 2.99, so weak values seen in few replicates may be background. Also given: how often the same scFv was detected with the empty control strains.

-0.23, 0.12, -0.39 (mean -0.16; controls 0 of 9): KSSQSVLCESRNKNSVA / GAYTRES / QQYHRLPLS.
-0.26, 0.10, -0.13 (mean -0.10; controls 5 of 9): HSSQSVLMESRNKNSVA / GASTRES / QQYHRLPLS.
-0.16, 0.14, -0.05 (mean -0.02; controls 0 of 9): SSSQSVLYESRNKQSVA / QASTRES / QQYHRLPLS.
0.71, 0.86, 0.86 (mean 0.81; controls 2 of 9): KSSQSVLVESRNKNSVA / WASTLES / QQYMRLPLS.
0.66, 1.06, 0.81 (mean 0.85; controls 0 of 9): KSSQSALYESRNKNSVA / WASTRES / QQYNRLPGS.
0.80, 1.31, 0.96 (mean 1.02; controls 0 of 9): KSSESVLYESRWKNSVA / WASTRES / QQYYRLPLS.
0.98, 1.13, 1.47 (mean 1.20; controls 0 of 9): KESQSVLYESRNKNSVA / WANTRES / QQYHRLPLS.
1.15, 1.26, 1.25 (mean 1.22; controls 5 of 9): KSSQSVLYESRFKNSVA / WASTRLS / QQYHRPPLS.
1.53, 1.47, 1.49 (mean 1.50; controls 4 of 9): TSSQSVLYESRKKNSVA / WASTRAS / QQYHRLPLS.
1.49, 1.58, 1.46 (mean 1.51; controls 0 of 9): KSSQAVLYESRNKNSVA / WASWRVS / QQYHRLPLS.
1.52, 1.54, 1.66 (mean 1.57; controls 1 of 9): KSSQSVLYESRVYNSVA / WASTRES / QQYHRLPLS.
2.14, 1.56, 1.37 (mean 1.69; controls 0 of 9): KSSQSVLYESRNKNSVA / QASTRES / CDYHRLPLS.
1.72, 1.61, 1.94 (mean 1.76; controls 0 of 9): KSSQSVSYESRNKNSVA / WASTREG / QQYHRLDLS.
1.79, 1.71, 1.91 (mean 1.80; controls 2 of 9): KSSQSVLYESRNKNSVA / WAWTRDS / QQYHRLPLS.
1.79, 1.85, 2.13 (mean 1.92; controls 3 of 9): KSSGSVLYESRNGNSVA / WASTRES / QQYHRLPTS.
1.72, 1.84, 2.42 (mean 1.99; controls 0 of 9): YSSQSVDYESRNKNSVA / WASTRES / QQYHRLMLS.
2.15, 2.32, 2.04 (mean 2.17; controls 0 of 9): KMSCSVLYESRNKNSVA / WASTRES / QQYFRLPLS.
2.64, 2.28, 1.99 (mean 2.30; controls 0 of 9): KSSQSVLYEWRNKNSVA / WTSTRES / QQYHRLPLS.
nd, 1.82, 3.15 (mean 2.48; controls 1 of 9): KSFQDVLYEDRNKNSVA / WASTRES / QQYHRLPLS.
nd, 2.79, nd (controls 1 of 9): KSSQSVLYESRNKQSYA / WASTRES / QQYWRLPLS.
2.93, 2.58, 3.73 (mean 3.08; controls 0 of 9): KSSQSVLGESRAKNSVA / WASTRES / QWYHRLPLS.
nd, nd, 3.71 (controls 4 of 9): PSSQSVLMESRNKNSVA / WASTRES / QQYHRLPSS.
nd, nd, 4.10 (controls 3 of 9): KPSQSVLYEIRNKNSVA / WASTRES / QQRHRLPLS.
3.83, 4.95, nd (mean 4.39; controls 2 of 9): TSSQSVLYEARNKNSVT / WASTRES / QQYHRLPLS.
4.08, 5.00, 5.89 (mean 4.99; controls 6 of 9): KSSQSVLYESRNKNSVA / WASTRPP / QQDHRLPLS.
6.57, 4.14, 4.58 (mean 5.10; controls 2 of 9): KSSQSVLYESRNKNSTA / WASTRES / QMYHKLPLS.
4.89, 5.35, nd (mean 5.12; controls 5 of 9): KSSQPVLYESRNKNSVA / WAETRES / QQYHRLPSS.
5.26, nd, 5.22 (mean 5.24; controls 3 of 9): KSSQSVLYESPNKNSEA / WASTRES / QQYHRLPAS.
nd, nd, nd (controls 2 of 9): KSSQSVLYTSRNKNSVY / WASTRES / QQYHRLPLS.
nd, nd, nd (controls 2 of 9): KSSQSVLYESLNVNSVA / WASTRES / QQEHRLPLS.
nd, nd, nd (controls 0 of 9): KSSQSVGYESWNKNSVA / WAHTRES / QQYHRLPLS.
nd, nd, nd (controls 0 of 9): KSSQYVLYESRNKNSVA / WISTREC / QQYHRLPLS.
nd, nd, nd (controls 0 of 9): KSSQSVLYESRWKNSVD / WASTRES / QQYHRLPWS.
nd, nd, nd (controls 0 of 9): KSSQTVLYTSRNKNSVA / WASTRES / QQYHRLPTS.
nd, nd, nd (controls 0 of 9): KSSQSVLYKSNNKNSHA / WASTRES / QQYHRLPLS.
nd, nd, nd (controls 2 of 9): KSSQSWLYESRNKNSVA / WASTRES / WQYHRLPLS.
nd, nd, nd (controls 0 of 9): KSSQSVLYESRNKNSVA / WASTRES / SQHTRLPLS.
nd, nd, nd (controls 0 of 9): KSSQSVLYESNNKNSVA / WASTRES / QQEVRLPLS.
nd, nd, nd (controls 3 of 9): KSSQSVLYGSRNKNWVA / WASTRES / QQYHRLPWS.
nd, nd, nd (controls 2 of 9): KSSQSVLYCSRNKLSVA / WASTRES / PQYHRLPLS.
nd, nd, nd (controls 0 of 9): KSSQSVLYESRNHNSVA / WASTRES / QQYHRLNLC.
nd, nd, nd (controls 1 of 9): KSSQSVLYESRNKNSHA / WADTRES / QQYHRLILS.

The opening 2 entries, copied out:

CDR-L1,CDR-L2,CDR-L3,log10 Kd (nM) by replicate,"mean, log10 nM",signal with controls
KSSQSVLCESRNKNSVA,GAYTRES,QQYHRLPLS,"-0.23, 0.12, -0.39",-0.16,0/9
HSSQSVLMESRNKNSVA,GASTRES,QQYHRLPLS,"-0.26, 0.10, -0.13",-0.10,5/9

Reference: Engelhart et al. 2022, doi:10.1038/s41597-022-01779-4. File: FLAb, binding data.